The text below walks through data of publication PMC5452035, “Structural insight into recognition of phosphorylated threonine‐4 of RNA polymerase II C‐terminal domain by Rtt103p” (EMBO Reports, 2017).

This assay deals with T1, Rtt103p CID (Saccharomyces cerevisiae, UniProt Q05543).
T1 construct: Rtt103p CID (3‐131–6xHIS) was expressed and purified as previously described; 6xHis (C); made in house; host or cells: E. coli BL21-Codon Plus (DE3)-RIPL
T1 sequence (Q05543 3-131): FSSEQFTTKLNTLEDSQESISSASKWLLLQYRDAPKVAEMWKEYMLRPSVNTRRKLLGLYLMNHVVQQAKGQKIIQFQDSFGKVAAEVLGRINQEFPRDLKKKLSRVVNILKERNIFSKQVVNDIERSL
Nature of the assay: Equilibrium binding by fluorescence anisotropy (FA), wild-type Rtt103p CID. Conditions: Rtt103p CID titrated into 10 nM FAM‐labelled CTD peptide, 10°C, 35 mM KH2PO4, 100 mM KCl, pH 6.8, 1:1 model with non‐specific binding, ± standard deviation of the fit, each data point average of three measurements. Set-up: species or system yeast. In general terms: In fluorescence polarisation assays a small probe gives low polarisation when free and higher when bound to something large.

Take `C[C@@H](O)[C@H](NC(=O)[C@@H]1CCCN1C(=O)[C@H](CO)NC(=O)[C@H](Cc1ccc(O)cc1)NC(=O)[C@H](CO)NC(=O)[C@@H]1CCCN1C(=O)[C@H](CO)NC(=O)[C@@H](NC(=O)[C@@H]1CCCN1C(=O)[C@H](CO)NC(=O)[C@H](Cc1ccc(O)cc1)NC(=O)[C@H](CO)NC(=O)[C@@H]1CCCN1C(=O)c1ccc2c(c1)C(=O)OC21c2ccc(O)cc2Oc2cc(O)ccc21)[C@@H](C)O)C(=O)N[C@@H](CO)C(=O)N1CCC[C@H]1C(=O)N[C@@H](CO)C(=O)O` [non‐phosphorylated CTD]: the affinity, expressed as Kd, was 64 ± 2 µM.
